From patent US12697313B2, “Methods of treating anemia using formoterol or a pharmaceutically acceptable salt thereof” (Dana-Farber Cancer Institute, Inc., priority 2022, dated 2026)

Columns and labels:
[1] = system: wild-type mice; experiment: FF oral gavage in wild-type mice at steady-state; assay type: in vivo; conditions: 0.1/0.5/1.0 mg/kg o.g.; FIG. 52
[2] = system: naive wild-type mice; experiment: FF in naive wild-type mice without PHZ stress (FIG. 62 setup); assay type: in vivo; conditions: 0.1/0.3/0.5 mg/kg; FIG. 69
[3] = system: phenylhydrazine (PHZ)-treated mice; experiment: FF oral gavage in PHZ-treated mice at sub-lethal dose of 60 mg/kg; assay type: in vivo; conditions: 0.1/0.3/0.5/1.0 mg/kg o.g.; FIG. 61
[4] = molecular target: β2-AR (Mus musculus, UniProt P18762); conditions: ADRB2-depleted mice (Cameron et al. 2017); cited from earlier work
[5] = system: phenylhydrazine (PHZ)-treated mice; experiment: FF/Arf i.p. in PHZ-treated mice at sub-lethal dose of 60 mg/kg; assay type: in vivo; conditions: 0.3 mg/kg i.p.; FIG. 38

Substance: (E)-but-2-enedioic acid;N-[2-hydroxy-5-[(1R)-1-hydroxy-2-[[(2R)-1-(4-methoxyphenyl)propan-2-yl]amino]ethyl]phenyl]formamide
- RI, RII, RIII and RIV erythroid progenitors in BM [1]: substantially increases RI, RII, RIII and RIV erythroid progenitors
- RI, RII, RIII and RIV erythroid progenitors in BM [2]: substantially increases
- RI, RII, RIII and RIV erythroid progenitors in BM [3]: substantially increases RI, RII, RIII and RIV erythroid progenitors
- specificity for β2-AR [4]: highly specific for β2-AR
- RI, RII, RIII and RIV erythroid progenitors in BM [5]: consistently enhance erythroid progenitors
